Measurements taken from US11065277B2, “Method of ameliorating side effects of sickle cell disease treatments” (ALBERT EINSTEIN COLLEGE OF MEDICINE, priority 2015, dated 2021).
Entries after “also recorded” stand apart in the source; their conditions may differ.

How the values were obtained:
Assay type in all cases: in vivo, mouse
BERK mice [1] = experiment: Intravital microscopy of the systemic circulation (shear rate, volumetric flow rate, leukocyte adhesion, sickling); details: for Volumetric flow rate / systemic (peripheral) tissue blood flow: BERK / sickle transgenic mice
WT animals [2] = experiment: Whole brain cerebral blood flow (CBF) before and after top-load; details: post injection vs baseline, 10% top-load
Source text: FIG. 3: Whole Brain CBF before (baseline, BL) and after (PI, post injection) 10% top-load with EAF-[…]-Alb. CBF increased in WT animals, but decreased in SS-Antilles and BERK animals. * indicated p<0.001 W.R.T BL. […] This decrease in CBF is also associated with a decrease in cerebral oxygen delivery, resulting in post-drug administration increases in cerebral hypoxia. Using BOLD MRI imaging (which is sensitive to the tissue concentration of deoxy-Hb) the sufficiency of oxygenation of cerebral tissues was measured by assessing the change in deoxy-Hb which occurs with administration of a short inhalation bolus of 100% O2. The measure, termed BOLD-RHO (FIG. 4) indicates adequacy of oxygen delivery to the tissues.

SS-Antilles animals = experiment: as above; details: post injection vs baseline, 10% top-load
Source text: FIG. 3: Whole Brain CBF before (baseline, BL) and after (PI, post injection) 10% top-load with EAF-[…]-Alb. CBF increased in WT animals, but decreased in SS-Antilles and BERK animals. * indicated p<0.001 W.R.T BL.

BERK mice [3] = experiment: Cerebral blood flow (CBF) after treatment; details: post injection vs baseline, 10% top-load
WT animals [4] = experiment: BOLD-RHO (BOLD MRI response to hyperoxia, gray matter); details: post injection vs baseline
Experimental: (§1) FIG. 4: BOLD-RHO (gray matter) Response to Hyperoxia in WT and SCD Models. BL=baseline, PI=post injection. […] This decrease in CBF is also associated with a decrease in cerebral oxygen delivery, resulting in post-drug administration increases in cerebral hypoxia. Using BOLD MRI imaging (which is sensitive to the tissue concentration of deoxy-Hb) the sufficiency of oxygenation of cerebral tissues was measured by assessing the change in deoxy-Hb which occurs with administration of a short inhalation bolus of 100% O2. The measure, termed BOLD-RHO (FIG. 4) indicates adequacy of oxygen delivery to the tissues.

BERK mice [5] = experiment: as above; details: post injection vs baseline, 10% top-load
Source text: as §1, with “injection. […] FIG. 6: BOLD-RHO Response in BERK mice at different times following administration of EAF-PEG-Hb.” for “injection.”, “tissues. […] However, unlike EAF-PEG-Alb, the substitution of Alb with Hb in the molecule imparts increased oxygen carrying/delivering capacity to the blood, resulting in reduced likelihood for cerebral sickling and reduced cerebral oxidative stress to the brain. […] This effect can be achieved by combination of any therapy with EAF-PEG-Hb.” for “tissues.”

Which results are given for “EAF-P5K6-Alb: extension arm facilitated albumin molecule having 6 molecules of 5,000 mw polyethylene glycol (PEG) attached thereto”?
Volumetric flow rate / systemic (peripheral) tissue blood flow (BERK mice [1]; after 10% topload): increased; Volumetric flow rate / systemic (peripheral) tissue blood flow (BERK mice [1]; after 10% topload, listed as EAF-PEG-Alb): large improvement; also recorded: increase vessel flow; Shear Rate (BERK mice [1]; BERK mice, after 10% topload): increased; Leukocyte adhesion in systemic post capillary venules (BERK mice [1]; sickle transgenic animals, systemic circulation, listed as EAF-PEG-Alb): significantly reduces; Sickling (BERK mice [1]; systemic circulation): reduces; Whole Brain CBF (WT animals [2]): increased; Whole Brain CBF (WT animals [2]; listed as EAF-PEG-Alb): substantially increases; Whole Brain CBF (SS-Antilles animals): decreased; CBF (BERK mice [3]): decreased; CBF (BERK mice [3]; listed as EAF-PEG-Alb): drop in CBF; also recorded: significant decrease; BOLD-RHO (hypoxic stress, deoxyHb response to hyperoxia) (WT animals [4]): Hypoxic stress decreases; BOLD-RHO (hypoxic stress, brain deoxy-Hb response to hyperoxia) (BERK mice [5]): increased hypoxic stress
